Apparent affinities of Ab-91 variants for a coronavirus HR2 peptide

All variants were tested on one target, the spike HR2 peptide PDVDLGDISGINAS (SARS-CoV-2).

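Library AAYL51 holds single substitutions and randomly drawn double and triple substitutions in the CDRs. The scFvs were displayed on barcoded MATa yeast, the peptide on MATalpha yeast. After mating in shaken culture at 30 °C for 16 h, diploids were selected and their barcode pairs sequenced. The ratio of observed to expected reads was calibrated, replicate by replicate, on BCL2-family standards whose Kd was known from biolayer interferometry. Mating was done three times.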

The variants keep the light chain, the linker and the frameworks of Ab-91 (scFv order VL, the linker GGGGSGGGGSGGGGS, VH).
VL: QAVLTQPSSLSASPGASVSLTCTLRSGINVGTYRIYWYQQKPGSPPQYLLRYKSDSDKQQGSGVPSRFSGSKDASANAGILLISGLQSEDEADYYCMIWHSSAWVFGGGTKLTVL
VH: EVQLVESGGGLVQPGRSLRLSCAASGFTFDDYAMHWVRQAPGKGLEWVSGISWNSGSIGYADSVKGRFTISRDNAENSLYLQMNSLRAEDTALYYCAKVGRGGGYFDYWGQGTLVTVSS

Variants are written as CDR1, CDR2 and CDR3 of the heavy chain (limits as in the source). Parent: GFTFDDYAMH, GISWNSGSIGYADSVK, VGRGGGYFDY.
This list gathers variants with a substitution at F106 (VH, numbered from residue 1).
Affinities are written as log10 Kd with Kd in nM; a lower number is a better binder.
Averages over replicates are reported, and they cover detected replicates only.
"ND" marks a missing value. The strain was present, yet no cells mated with the target were sequenced in that replicate, which points to weak or no binding.
Order: sorted from the lowest average up, undetected variants last.

With GFTFRDYAMH | GISWNSGSIGYADSVK | VGRGGGYCFY the result was 1.20, 0.83, 0.36 (mean 0.80). With GFDFDDYAMH | GISWNSGSIGYADSVK | VGRGGGYKRY the result was 1.28, 0.88, 0.62 (mean 0.92). With GFTFDDYAMH | GISHNSGSIGYADSVK | VGRGGGYPDY the result was 1.74, 1.20, 0.32 (mean 1.09). Variant GFTFDDYAMH | GISWNSGSIGYADSVK | VGRGGGWDGY showed 2.00, 1.70, 0.59 (mean 1.43). Variant GFTFDDYAMH | GISWNSGSIYYADSVK | VGRGGVYEDY showed ND, ND, 1.51. For GFTFDDYAMH | GISWNSKSIGYADSVK | VGRGGGYIDY, the assay gave 2.20, 2.48, 2.20 (mean 2.29).

Variant GFCFDDYAMH | GISWNSGSIGYAYSVK | VGRGGGYEDY showed ND, ND, 3.81. Variant GFTFDDYAMR | GISWNSGSIGEADSVK | VGRGGGYNDY gave 3.84, ND, ND. Variant GFTADDYAMH | GIRWNSGSIGYADSVK | VGRGGGYYDY showed 3.62, 4.65, 3.65 (mean 3.97). Variant GFTFDDYAMH | GISWNSGSICYADSVK | VGRGGGYGCY showed ND, ND, 4.03. For GMTFDDYAMH | GISWNSVSIGYADSVK | VGRGGGYWDY, the assay gave 4.12, 3.87, 4.94 (mean 4.31). With GFTFDDYAMH | GISWNSGSIGQADSVK | VGRGGAYDDY the result was 4.97, ND, 3.67 (mean 4.32).

Variant GFTFDDYAMH | GISWNSGSICYADSVK | VGRGGDYSDY gave 5.47, 4.84, 4.80 (mean 5.04). For GFTFDDYAMH | GISWNSGSIGYADSHK | VGRGGGYGRY, the assay gave ND, 5.41, ND. Variant GFTFDDYAMH | GISSFSGSIGYADSVK | VGRGGGYVDY showed 5.98, 5.69, ND (mean 5.84). For GFTFDDYAMH | VWSWNSGSIGYADSVK | VGRGGGYYDY, the assay gave ND, 6.04, ND. For GFTFDDYAMH | WPSWNSGSIGYADSVK | VGRGGGYKDY, the assay gave ND, ND, ND. For GFTFDDYAMH | GISPNSGSIGYADSVK | VGQGGGYHDY, the assay gave ND, ND, ND.

Variant GFTFDDYAMH | GISWNSGSIGYADSVK | VGRGSGYKHY gave ND, ND, ND. For GFTFDDYAMH | GISWNSGSIGYADSVK | VGRFGHYKDY, the assay gave ND, ND, ND. Variant GFTFDDYAMH | EISWNSGSIGYADSVK | VGRGGGYMDY showed ND, ND, ND. With GITFDDYAMH | GISWNSGSIGYADSVK | VGRGTGYQDY the result was ND, ND, ND. Variant IFTFDDYAMH | GISWNSGSIGYADSVK | VGRGDGYGDY showed ND, ND, ND. With GFTFDDYAMH | GIFWNSGSIGYADTVK | VGRGGGYPDY the result was ND, ND, ND.

With GFTFDPYAMH | GISWNSGSIGYADSHK | VGRGGGYPDY the result was ND, ND, ND. With GFTFDDYNMH | GISWNSGSIGAADSVK | VGRGGGYRDY the result was ND, ND, ND. For GFTFDDYAMH | GISWNSGSIGCADSVI | VGRGGGYQDY, the assay gave ND, ND, ND. For GFTFDDYAMH | GISWNSGSIGYADSVK | VGRGVGYADY, the assay gave ND, ND, ND. With GFTRDDYAMH | GISWNSGSIGYADSVK | VGRGGGKQDY the result was ND, ND, ND. Variant GLTFDDYAMH | GISWNSGSIGGADSVK | VGRGGGYIDY showed ND, ND, ND.

With GNTFDDYAMH | GISWNSGSIGYADSVK | VGRGGGYDDF the result was ND, ND, ND. With GFTFDDYAMH | GISWNPGSIGMADSVK | VGRGGGYEDY the result was ND, ND, ND. Variant GFTFDDYDME | GISWNSGSIGYADSVK | VGRGGGYLDY showed ND, ND, ND. With GFTFDLYPMH | GISWNSGSIGYADSVK | VGRGGGYRDY the result was ND, ND, ND. Variant GFTFDDYAMH | GISWNSGSIQYADSVK | VGRGGTYPDY gave ND, ND, ND. With GKTFDDYAMH | GISWNSGSIGYADSVK | VGRQGGYVDY the result was ND, ND, ND.

6 of these entries, quoted again:

The variant GFCFDDYAMH | GISWNSGSIGYAYSVK | VGRGGGYEDY gave ND, ND, 3.81.
The variant GFTFDDYAMH | GISWNSGSIGYADSHK | VGRGGGYGRY gave ND, 5.41, ND.
The variant GFTFDDYAMH | WPSWNSGSIGYADSVK | VGRGGGYKDY gave ND, ND, ND.
The variant GFTFDDYAMH | GISPNSGSIGYADSVK | VGQGGGYHDY gave ND, ND, ND.
The variant GFTFDDYAMH | GISWNSGSIGYADSVK | VGRGSGYKHY gave ND, ND, ND.
The variant GFTFDDYAMH | GISWNSGSIYYADSVK | VGRGGVYEDY gave ND, ND, 1.51.

Nonspecific signal, from three strains lacking the peptide, appeared in 21% of pairings of library AAYL51, centred on 4.54 (5% of these signals below 3.26); values are not corrected for it.

Source: Engelhart et al. 2022 (doi:10.1038/s41597-022-01779-4), MIT Lincoln Laboratory and A-Alpha Bio; data file from the FLAb repository.